Measurements taken from US8980954B2, “Substituted cis- and trans-stilbenes as therapeutic agents” (STC.UNM, priority 2006, dated 2015).

System: NF-κB
Assay: Inhibition of the TNFα-induced activation of NF-κB, 293T/NF-κB-luc luciferase reporter cell assay
Assay type: cell-based
Conditions: Homo sapiens, HEK-293T; 293T/NF-κB-luc cells, TNFα 20 ng/ml, 7 hours, triplicate; read-out: IC50 for inhibition of the TNFα-induced activation of NFκB
Method: The cells were maintained in Dulbecco's Modified Eagle's Medium (DMEM—high glucose containing 4 mM glutamine) supplemented with 10% fetal bovine serum (FBS), 1 mM sodium pyruvate, 100 units/ml penicillin, 100 μg/ml streptomycin and 100 μg/ml hygromycin (Gibco/Invitrogen, Carlsbad, Calif.) to maintain cell selection. […] The following day cells were fed fresh media 1 hour prior to treatment. […] Plate wells were gently washed with phosphate buffered saline, pH 7.4, and lysed with 1x passive lysis buffer (Promega, Madison, Wis.). The subsequent lysates were analyzed with the Luciferase Assay System (Promega) utilizing a TD-20/20 luminometer (Turner Designs, Sunnyvale, Calif.). The firefly luciferase relative light units were normalized to protein (mg/ml) with BCA™ Protein Assay Kit (Pierce, Rockford, Ill.) and standardized to percent of control (TNFα control).

SMILES	IC50 [nM]
COc1ccc(/C=C/c2cccc(F)c2)cc1 [6n, (E)-3-Fluoro-4′-methoxystilbene]	1100 ± 600
C(=C\c1ccc2ccccc2c1)/c1ccccc1 [8e, (E)-2-Styrylnaphthalene]	1300 ± 300
